# Source: PubChem BioAssay AID845 (Columbia University Molecular Screening Center, 2007)
# Only a part is listed here, and it is no random draw. Calls of active or inactive are those of the source.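 The calls were made as follows: active = cell count reduction more than 3 SD above the screen-wide mean (cut at about 70% in these data); inactive = the rest.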
# Experiment: HUVEC cell count loss after compound exposure – imaging, Hoechst nuclear count, IL-1B stimulus, cytotoxicity control for IL-1B NFkB translocation project, primary screen (AID 845);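 also: normalized per plate to untreated control cells as the no-loss baseline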
# Details: IL-1B stimulated, at 2 µM, stronger effect = higher value
row,Compound,cell count reduction
1,CP(=O)(Nc1ccccc1)Oc1ccc(F)cc1 (stereo not drawn),inactive: 24%
2,CCN(CC)CCCOC(=O)C(O)(c1ccccc1)C1CCCCC1 (stereo not drawn),inactive: 4.6%
3,CP(=O)(Nc1ccccc1F)Oc1ccccc1 (stereo not drawn),inactive: 0%
4,CCOP(C)(=S)SCC(=O)NC(C)(CC)C(=O)O (stereo not drawn),inactive: -56.6%
5,CP(=O)(Nc1ccc2c(c1)OCCO2)Oc1ccccc1 (stereo not drawn),inactive: -0.8%
6,CN(C)CCOC(=O)C(O)(c1ccccc1)C1CCCCC1 (stereo not drawn),inactive: 2.4%
7,CP(=O)(OC12CC3CC(CC(C3)C1)C2)OC12CC3CC(CC(C3)C1)C2,inactive: 14.4%
8,COc1ccccc1OP(C)(=O)Nc1c(C)n(C)n(-c2ccccc2)c1=O (stereo not drawn),inactive: -21.8%
9,CP(=O)(Oc1ccccc1)N1CCOC1=O (stereo not drawn),inactive: 3.4%
10,CCN(CC)CC(O)COC(=O)C(O)(c1ccccc1)C1CCCCC1 (stereo not drawn),inactive: -30.1%
11,CC(C)(C)c1ccc(OP(C)(=O)O)cc1,inactive: 2.3%
12,CP(=O)(Nc1ccc(Cl)cc1)Oc1ccc(F)cc1 (stereo not drawn),inactive: -8.5%
13,COc1ccc(OP(C)(=O)Nc2ccccn2)cc1 (stereo not drawn),inactive: -15.8%
14,CN(C)CCOC(=O)C(O)(c1ccccc1)C1CCCC1 (stereo not drawn),inactive: -11.5%
15,COc1ccccc1OP(C)(=O)Nc1ccc(C)cc1C (stereo not drawn),inactive: -2.1%
16,CP(=O)(Nc1ccccn1)Oc1ccccc1 (stereo not drawn),inactive: -9.2%
17,CCc1ccc(OP(C)(=O)O)cc1,inactive: -2.3%
18,Cc1c(NP(C)(=O)Oc2ccc(C(C)C)cc2)c(=O)n(-c2ccccc2)n1C (stereo not drawn),inactive: 4.2%
19,COc1ccccc1OP(C)(=O)Nc1ccc(C)c(C)c1 (stereo not drawn),inactive: -25.6%
20,Cc1nc2ccc3ccccc3c2o1.O=[N+]([O-])c1cc([N+](=O)[O-])c(O)c([N+](=O)[O-])c1,inactive: -3.4%
21,COc1ccc(OP(C)(=O)Nc2cccc(F)c2)cc1 (stereo not drawn),inactive: -30.5%
22,CP(=O)(NC(=O)Nc1ccccc1)Oc1ccccc1 (stereo not drawn),inactive: -8.5%
23,CP(=O)(Nc1ccccn1)Oc1ccc(Cl)cc1 (stereo not drawn),inactive: -9%
24,CP(=S)(Nn1cnnc1)Oc1ccccc1 (stereo not drawn),inactive: -18.8%
25,COc1ccccc1OP(C)(=O)Nc1c(C)cccc1C (stereo not drawn),inactive: -7.3%
26,Cc1nc2ccc3ccccc3c2s1.O=[N+]([O-])c1cc([N+](=O)[O-])c(O)c([N+](=O)[O-])c1,inactive: -0.4%
27,Cc1ccc(C)c(NP(C)(=O)Oc2ccccc2)c1 (stereo not drawn),inactive: 1.2%
28,Cc1cc(C)cc(OP(C)(=O)Nc2ccccn2)c1 (stereo not drawn),inactive: -10.5%
